Experimental data: paper PMC9558423 (Molecular nutrition & food research, 2020)
Like-named read-outs stand apart in the source and are kept apart here.

Conditions: for Qualitative Tmax (urine collection with greatest excretion): 12h urine collections, np = no peak; for Cmax (nmol excreted): urine, mean ± SD

delphinidin glucuronide
Qualitative Tmax (urine collection with greatest excretion) (High dose (1000 mg/kg bw)): 0 to 12 h | Cmax (nmol excreted) (High dose (1000 mg/kg bw)): 20.8 ± 5.1 nmol excreted | Qualitative Tmax (urine collection with greatest excretion) (Low dose (75 mg/kg bw)): np | Cmax (nmol excreted) (Low dose (75 mg/kg bw)): np | Qualitative Tmax (urine collection with greatest excretion) (Medium dose (350 mg/kg bw)): 0 to 12 h | Cmax (nmol excreted) (Medium dose (350 mg/kg bw)): 6.35 ± 1.60 nmol excreted
